Source: PubChem BioAssay (NCI)
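Growth conditions: 96-well plates. Treatment: test compound, 48 hours, 5 concentrations. Analysis: linear interpolation between bracketing concentrations; unreached endpoints set to highest concentration. The concentration for full growth arrest is given as TGI.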

Tested on: NCI-H23 lung
Assay: NCI-60 cell line screen, 48 h

In the case of `CC1C(=O)C(C)C(c2ccccc2)N(C)C1c1ccccc1` (stereo unspecified), the TGI is reported as > 100 µM.
